This assay has as its target T1, Calpain-1 catalytic subunit (Homo sapiens) (UniProt P07384).
T1 sequence (whole entry): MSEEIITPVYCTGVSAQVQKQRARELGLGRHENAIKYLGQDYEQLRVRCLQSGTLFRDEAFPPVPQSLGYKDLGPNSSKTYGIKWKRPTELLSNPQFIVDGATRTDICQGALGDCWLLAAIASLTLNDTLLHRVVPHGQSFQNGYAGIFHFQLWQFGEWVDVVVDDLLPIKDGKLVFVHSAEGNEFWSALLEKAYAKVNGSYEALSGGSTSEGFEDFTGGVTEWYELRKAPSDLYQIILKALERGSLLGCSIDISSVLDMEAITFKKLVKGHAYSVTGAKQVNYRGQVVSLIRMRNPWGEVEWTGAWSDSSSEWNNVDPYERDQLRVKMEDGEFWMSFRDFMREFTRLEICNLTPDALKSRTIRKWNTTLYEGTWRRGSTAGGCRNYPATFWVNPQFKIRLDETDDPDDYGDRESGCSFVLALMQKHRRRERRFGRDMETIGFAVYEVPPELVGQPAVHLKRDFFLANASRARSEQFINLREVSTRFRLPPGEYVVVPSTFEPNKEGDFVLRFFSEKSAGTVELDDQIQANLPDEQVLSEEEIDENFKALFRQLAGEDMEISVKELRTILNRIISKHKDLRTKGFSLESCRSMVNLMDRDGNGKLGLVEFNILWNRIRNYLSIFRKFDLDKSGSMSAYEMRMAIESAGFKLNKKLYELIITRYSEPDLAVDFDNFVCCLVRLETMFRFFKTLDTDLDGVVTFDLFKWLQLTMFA
Briefly: Compound was tested for inhibitory activity against recombinant human Calpain 1.

With `CC(C)C[C@H](NC(=O)N1CCc2ccccc2C1)C(=O)NC(Cc1ccccc1)C(=O)CF` (stereo partly specified), the K obs / 1 amounted to 276000 M⁻¹ s⁻¹.

For the origin of these results see ChEMBL document CHEMBL1129090, “Potent fluoromethyl ketone inhibitors of recombinant human calpain I” (Bioorg Med Chem Lett, 1996).
